Drawing on ChEMBL document CHEMBL1201862, “PubChem BioAssay data set” (2004), this text covers Potency and GI50 for seven compounds.

The chains behind the UniProt entries cited, without tags or fusion partners. Where a name states a change or a piece, a line headed by the entry shows the natural chain unless it says otherwise.
UniProt B2RXH2: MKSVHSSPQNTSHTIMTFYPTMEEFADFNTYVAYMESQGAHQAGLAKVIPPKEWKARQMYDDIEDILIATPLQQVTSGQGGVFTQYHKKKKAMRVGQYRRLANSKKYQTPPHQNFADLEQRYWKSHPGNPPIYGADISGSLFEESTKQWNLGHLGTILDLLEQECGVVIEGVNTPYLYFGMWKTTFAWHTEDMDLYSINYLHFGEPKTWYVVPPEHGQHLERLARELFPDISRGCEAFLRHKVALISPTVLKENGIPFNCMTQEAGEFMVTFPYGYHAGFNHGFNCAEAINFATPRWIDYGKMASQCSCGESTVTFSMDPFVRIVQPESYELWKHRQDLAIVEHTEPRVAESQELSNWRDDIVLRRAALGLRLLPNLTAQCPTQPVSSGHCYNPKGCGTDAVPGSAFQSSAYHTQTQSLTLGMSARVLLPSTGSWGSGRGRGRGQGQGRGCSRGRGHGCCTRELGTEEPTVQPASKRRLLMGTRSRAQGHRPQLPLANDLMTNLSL
UniProt P00352: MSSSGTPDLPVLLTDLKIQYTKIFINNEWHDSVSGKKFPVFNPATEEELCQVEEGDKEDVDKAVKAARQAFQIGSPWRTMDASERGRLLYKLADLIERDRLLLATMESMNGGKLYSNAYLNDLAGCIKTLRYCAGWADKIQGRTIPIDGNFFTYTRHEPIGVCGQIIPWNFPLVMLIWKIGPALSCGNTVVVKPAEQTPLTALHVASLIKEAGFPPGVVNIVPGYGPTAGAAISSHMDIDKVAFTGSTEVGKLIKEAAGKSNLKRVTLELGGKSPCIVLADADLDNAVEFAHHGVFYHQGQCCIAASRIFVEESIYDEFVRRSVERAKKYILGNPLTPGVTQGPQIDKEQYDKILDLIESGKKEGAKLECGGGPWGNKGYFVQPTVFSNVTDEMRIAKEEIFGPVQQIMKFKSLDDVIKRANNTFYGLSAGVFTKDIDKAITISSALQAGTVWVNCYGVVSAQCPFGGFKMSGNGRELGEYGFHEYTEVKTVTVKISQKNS
UniProt P84022, whole entry, looked up: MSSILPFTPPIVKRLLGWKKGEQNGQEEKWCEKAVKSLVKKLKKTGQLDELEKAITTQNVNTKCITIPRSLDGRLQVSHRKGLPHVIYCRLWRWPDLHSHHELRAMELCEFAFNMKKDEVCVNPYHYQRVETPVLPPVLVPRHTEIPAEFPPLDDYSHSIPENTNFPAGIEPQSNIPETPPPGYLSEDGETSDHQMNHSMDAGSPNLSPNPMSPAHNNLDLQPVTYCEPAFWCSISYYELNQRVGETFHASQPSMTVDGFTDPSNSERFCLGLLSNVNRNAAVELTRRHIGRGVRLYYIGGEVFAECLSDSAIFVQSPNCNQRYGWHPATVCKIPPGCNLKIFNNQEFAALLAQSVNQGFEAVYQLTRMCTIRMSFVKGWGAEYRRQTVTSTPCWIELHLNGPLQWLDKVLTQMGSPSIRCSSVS
UniProt P43220, whole entry, looked up: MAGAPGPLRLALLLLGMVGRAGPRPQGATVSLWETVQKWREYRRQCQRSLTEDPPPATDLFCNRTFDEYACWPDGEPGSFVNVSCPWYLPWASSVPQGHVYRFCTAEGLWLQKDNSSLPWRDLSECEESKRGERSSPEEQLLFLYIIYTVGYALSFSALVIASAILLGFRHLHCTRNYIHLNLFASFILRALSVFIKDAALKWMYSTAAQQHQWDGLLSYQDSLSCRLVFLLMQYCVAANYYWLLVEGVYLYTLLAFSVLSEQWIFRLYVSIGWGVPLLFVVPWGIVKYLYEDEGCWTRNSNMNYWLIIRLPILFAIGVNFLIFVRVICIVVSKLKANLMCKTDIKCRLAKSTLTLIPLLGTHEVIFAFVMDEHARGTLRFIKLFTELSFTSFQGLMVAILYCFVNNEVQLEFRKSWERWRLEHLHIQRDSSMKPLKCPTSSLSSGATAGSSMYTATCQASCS
UniProt Q9NUW8, whole entry, looked up: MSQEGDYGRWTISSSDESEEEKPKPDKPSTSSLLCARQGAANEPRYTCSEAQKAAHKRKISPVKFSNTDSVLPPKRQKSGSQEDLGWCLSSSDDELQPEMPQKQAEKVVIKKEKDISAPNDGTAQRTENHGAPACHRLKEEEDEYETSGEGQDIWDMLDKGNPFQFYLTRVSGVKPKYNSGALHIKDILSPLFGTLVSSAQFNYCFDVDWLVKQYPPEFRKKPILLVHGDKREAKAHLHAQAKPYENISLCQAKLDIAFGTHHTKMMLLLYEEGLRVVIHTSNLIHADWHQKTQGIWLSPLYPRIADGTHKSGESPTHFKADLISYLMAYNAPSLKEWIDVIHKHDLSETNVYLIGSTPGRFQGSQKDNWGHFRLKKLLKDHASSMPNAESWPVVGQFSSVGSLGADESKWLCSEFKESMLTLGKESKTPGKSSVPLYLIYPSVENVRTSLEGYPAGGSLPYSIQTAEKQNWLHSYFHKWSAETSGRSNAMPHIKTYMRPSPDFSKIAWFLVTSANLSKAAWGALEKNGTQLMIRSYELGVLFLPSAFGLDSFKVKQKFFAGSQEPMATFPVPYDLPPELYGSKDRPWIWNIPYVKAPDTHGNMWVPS
UniProt P53350, whole entry, looked up: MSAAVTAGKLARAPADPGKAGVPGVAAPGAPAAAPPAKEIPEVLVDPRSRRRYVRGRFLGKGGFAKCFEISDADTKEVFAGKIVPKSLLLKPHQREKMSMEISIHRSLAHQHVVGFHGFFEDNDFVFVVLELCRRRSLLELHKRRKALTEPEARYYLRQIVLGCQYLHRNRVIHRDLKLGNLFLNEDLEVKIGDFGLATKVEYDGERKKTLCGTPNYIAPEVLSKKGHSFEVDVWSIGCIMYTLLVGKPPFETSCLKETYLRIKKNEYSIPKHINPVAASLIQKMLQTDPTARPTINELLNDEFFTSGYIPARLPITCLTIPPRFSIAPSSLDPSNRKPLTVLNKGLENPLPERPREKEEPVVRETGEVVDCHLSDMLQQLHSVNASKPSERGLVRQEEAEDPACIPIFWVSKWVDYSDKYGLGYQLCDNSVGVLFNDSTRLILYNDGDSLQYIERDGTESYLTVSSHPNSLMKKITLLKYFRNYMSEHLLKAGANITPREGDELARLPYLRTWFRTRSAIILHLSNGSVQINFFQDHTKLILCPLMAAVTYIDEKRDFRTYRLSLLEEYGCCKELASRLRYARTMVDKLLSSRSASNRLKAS
UniProt P15428: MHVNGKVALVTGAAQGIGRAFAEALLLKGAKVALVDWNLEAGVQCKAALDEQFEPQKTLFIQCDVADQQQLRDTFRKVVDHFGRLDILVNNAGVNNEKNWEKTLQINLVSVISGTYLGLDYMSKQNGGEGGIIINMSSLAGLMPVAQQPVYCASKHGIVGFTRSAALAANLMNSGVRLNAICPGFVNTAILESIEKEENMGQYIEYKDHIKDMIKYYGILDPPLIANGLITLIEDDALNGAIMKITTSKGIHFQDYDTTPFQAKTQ
UniProt Q99700, whole entry, looked up: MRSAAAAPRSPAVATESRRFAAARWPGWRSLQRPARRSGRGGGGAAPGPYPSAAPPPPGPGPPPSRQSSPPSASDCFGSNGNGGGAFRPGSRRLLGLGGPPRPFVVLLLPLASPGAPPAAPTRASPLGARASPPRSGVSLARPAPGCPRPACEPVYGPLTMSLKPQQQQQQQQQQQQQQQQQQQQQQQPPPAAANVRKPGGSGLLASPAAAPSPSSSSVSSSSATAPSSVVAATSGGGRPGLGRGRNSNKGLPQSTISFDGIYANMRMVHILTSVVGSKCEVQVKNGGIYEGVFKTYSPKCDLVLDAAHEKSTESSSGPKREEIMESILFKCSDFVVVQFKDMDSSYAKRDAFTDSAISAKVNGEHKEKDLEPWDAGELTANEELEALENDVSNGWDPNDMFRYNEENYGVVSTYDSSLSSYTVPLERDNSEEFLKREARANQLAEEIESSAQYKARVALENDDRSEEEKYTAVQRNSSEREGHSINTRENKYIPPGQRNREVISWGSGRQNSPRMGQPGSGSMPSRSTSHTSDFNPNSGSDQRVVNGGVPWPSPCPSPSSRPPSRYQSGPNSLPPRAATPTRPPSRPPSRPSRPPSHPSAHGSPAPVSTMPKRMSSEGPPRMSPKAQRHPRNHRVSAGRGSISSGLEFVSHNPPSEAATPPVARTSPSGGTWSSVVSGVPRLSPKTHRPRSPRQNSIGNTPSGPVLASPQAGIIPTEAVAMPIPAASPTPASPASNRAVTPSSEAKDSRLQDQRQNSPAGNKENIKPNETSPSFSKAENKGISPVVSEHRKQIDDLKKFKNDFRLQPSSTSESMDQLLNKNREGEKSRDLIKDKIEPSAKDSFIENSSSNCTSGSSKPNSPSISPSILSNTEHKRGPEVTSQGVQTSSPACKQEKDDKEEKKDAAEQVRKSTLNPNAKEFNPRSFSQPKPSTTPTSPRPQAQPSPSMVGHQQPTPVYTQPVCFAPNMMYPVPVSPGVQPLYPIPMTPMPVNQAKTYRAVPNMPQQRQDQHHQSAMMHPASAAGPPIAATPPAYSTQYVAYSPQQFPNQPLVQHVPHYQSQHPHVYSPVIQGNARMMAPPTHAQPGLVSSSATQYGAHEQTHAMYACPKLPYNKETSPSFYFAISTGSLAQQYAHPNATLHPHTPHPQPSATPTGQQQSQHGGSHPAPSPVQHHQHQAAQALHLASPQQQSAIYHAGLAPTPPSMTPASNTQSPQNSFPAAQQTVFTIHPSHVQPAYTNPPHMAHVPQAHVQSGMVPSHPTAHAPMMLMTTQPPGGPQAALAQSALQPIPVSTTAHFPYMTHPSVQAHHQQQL
UniProt Q03431: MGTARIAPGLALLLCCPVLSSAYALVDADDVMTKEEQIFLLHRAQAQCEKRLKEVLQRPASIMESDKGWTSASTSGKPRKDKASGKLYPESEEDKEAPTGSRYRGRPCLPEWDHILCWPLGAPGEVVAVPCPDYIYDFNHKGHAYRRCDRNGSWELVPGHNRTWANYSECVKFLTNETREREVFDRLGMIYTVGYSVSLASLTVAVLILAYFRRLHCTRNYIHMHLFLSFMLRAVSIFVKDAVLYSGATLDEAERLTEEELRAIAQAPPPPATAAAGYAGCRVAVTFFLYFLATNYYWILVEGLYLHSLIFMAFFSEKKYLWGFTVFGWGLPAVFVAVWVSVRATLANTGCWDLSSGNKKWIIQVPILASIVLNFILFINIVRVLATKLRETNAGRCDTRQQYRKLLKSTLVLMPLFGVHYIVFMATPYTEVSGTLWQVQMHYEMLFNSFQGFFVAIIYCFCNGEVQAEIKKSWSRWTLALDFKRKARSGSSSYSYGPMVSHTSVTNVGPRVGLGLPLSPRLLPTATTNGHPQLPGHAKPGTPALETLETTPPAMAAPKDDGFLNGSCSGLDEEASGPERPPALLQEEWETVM
UniProt Q14974, whole entry, looked up: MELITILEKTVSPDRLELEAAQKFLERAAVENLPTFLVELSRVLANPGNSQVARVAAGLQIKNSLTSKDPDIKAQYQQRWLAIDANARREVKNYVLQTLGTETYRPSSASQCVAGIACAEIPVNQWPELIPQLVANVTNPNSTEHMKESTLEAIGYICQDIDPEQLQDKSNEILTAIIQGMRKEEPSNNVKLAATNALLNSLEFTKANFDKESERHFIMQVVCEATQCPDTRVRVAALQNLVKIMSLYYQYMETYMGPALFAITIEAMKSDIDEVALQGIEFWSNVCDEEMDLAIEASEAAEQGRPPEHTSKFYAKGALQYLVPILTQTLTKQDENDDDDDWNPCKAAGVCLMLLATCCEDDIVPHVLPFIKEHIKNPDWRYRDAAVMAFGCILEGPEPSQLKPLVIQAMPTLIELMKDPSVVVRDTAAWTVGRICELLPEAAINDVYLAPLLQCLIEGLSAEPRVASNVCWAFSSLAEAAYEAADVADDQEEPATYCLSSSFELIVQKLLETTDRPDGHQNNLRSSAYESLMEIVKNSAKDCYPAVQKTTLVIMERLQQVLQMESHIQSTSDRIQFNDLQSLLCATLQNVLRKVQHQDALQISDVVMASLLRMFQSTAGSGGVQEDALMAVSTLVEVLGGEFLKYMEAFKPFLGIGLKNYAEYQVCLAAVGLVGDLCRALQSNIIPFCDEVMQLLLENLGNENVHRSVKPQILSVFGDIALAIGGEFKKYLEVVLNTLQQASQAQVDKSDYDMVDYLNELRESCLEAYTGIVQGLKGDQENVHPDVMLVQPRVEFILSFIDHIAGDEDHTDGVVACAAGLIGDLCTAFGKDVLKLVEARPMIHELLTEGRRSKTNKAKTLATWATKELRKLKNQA
UniProt O95149, whole entry, looked up: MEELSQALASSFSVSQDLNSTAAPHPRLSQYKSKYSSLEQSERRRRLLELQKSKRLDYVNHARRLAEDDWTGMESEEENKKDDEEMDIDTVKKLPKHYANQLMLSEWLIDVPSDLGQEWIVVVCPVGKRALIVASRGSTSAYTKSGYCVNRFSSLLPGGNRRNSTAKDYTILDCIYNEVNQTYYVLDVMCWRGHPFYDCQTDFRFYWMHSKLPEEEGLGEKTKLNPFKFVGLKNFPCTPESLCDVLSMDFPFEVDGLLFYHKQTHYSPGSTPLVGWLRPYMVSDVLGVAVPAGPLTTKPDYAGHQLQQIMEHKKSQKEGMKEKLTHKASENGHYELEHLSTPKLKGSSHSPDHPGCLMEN

Structures are written as SMILES. The list shows a part of the results, in another mix than the full data. Only a part of the results of these assays is listed, not drawn at random. The list shows a part of the results. For part of these data: Entries with a potency or affinity are not part of this list. Activity calls are given as the source filed them. Unless noted, the rule behind the calls is not given here.

The target in assay [1] is Lysine-specific demethylase 4E (Homo sapiens) (UniProt B2RXH2). Put plainly: qHTS Assay for Inhibitors of Human Jumonji Domain Containing 2E (JMJD2E). The assay is classed as functional. Background: Quantitative high-throughput screening tests each substance at several concentrations.
Assay [2] concerns the target T1, Nuclear receptor ROR-gamma (Mus musculus) (UniProt P51450).
T1 sequence (whole entry): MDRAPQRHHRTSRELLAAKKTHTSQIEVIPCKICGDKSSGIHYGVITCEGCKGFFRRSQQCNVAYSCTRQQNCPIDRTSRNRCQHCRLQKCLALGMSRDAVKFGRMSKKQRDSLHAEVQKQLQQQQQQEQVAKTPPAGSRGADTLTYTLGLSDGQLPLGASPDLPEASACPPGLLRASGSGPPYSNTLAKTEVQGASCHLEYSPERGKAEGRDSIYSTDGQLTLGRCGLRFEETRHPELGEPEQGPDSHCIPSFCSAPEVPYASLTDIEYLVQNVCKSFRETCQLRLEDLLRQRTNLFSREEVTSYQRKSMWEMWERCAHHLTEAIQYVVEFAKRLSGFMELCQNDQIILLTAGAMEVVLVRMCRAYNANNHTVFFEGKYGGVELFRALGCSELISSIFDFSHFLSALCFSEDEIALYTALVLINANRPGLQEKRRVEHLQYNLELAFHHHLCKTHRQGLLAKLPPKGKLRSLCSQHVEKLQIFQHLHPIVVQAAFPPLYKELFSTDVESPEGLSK
Put plainly: qHTS for inhibitors of ROR gamma transcriptional activity. The assay is classed as functional.

The target in assay [3] is Nuclear receptor ROR-gamma (Mus musculus) (UniProt P51450). Put plainly: VP16 counterscreen qHTS for inhibitors of ROR gamma transcriptional activity. It is filed as functional.
Assay [4] concerns the target Aldehyde dehydrogenase 1A1 (Homo sapiens) (UniProt P00352). Put plainly: qHTS Assay for Inhibitors of Aldehyde Dehydrogenase 1 (ALDH1A1). [Related pubchem assays: 1030 (qHTS Validation Assay for Inhibitors of aldehyde dehydrogenase 1 (ALDH1A1))]. It is filed as functional.
In a further assay the test system is HepG2. Put plainly: qHTS for Inhibitors of TGF-b: Cytotox Counterscreen. [Related pubchem assays (depositor defined):AID588855, AID588860]. The assay is classed as functional. The settings on record: Homo sapiens.
Assay [5] concerns the target Mothers against decapentaplegic homolog 3 (Homo sapiens) (UniProt P84022). Kind of assay: qHTS for Inhibitors of TGF-b. [Related pubchem assays (depositor defined):AID588856, AID588860]. It is filed as functional.
Assay [6] concerns the target Glucagon-like peptide 1 receptor (Homo sapiens) (UniProt P43220). Put plainly: qHTS of GLP-1 Receptor Inverse Agonists (Inhibition Mode). It is filed as functional.
Another assay has as its target Geminin (Homo sapiens) (UniProt O75496). Put plainly: A quantitative high throughput screen for small molecules that induce DNA re-replication in MCF 10a normal breast cells. It is filed as functional.
In assay [7] the target is Tyrosyl-DNA phosphodiesterase 1 (Homo sapiens) (UniProt Q9NUW8). Put plainly: qHTS for Inhibitors of human tyrosyl-DNA phosphodiesterase 1 (TDP1): qHTS in cells in absence of CPT. It is filed as functional.
Assay [8] shares this target. Put plainly: qHTS for Inhibitors of human tyrosyl-DNA phosphodiesterase 1 (TDP1): qHTS in cells in presence of CPT. It is filed as functional.
For assay [9], the target named is Lysine-specific demethylase 4A (Homo sapiens) (UniProt O75164). Put plainly: qHTS Assay for Inhibitors of JMJD2A-Tudor Domain. [Related pubchem assays (depositor defined):AID504402]. It is filed as functional.
Assay [10] concerns the target Serine/threonine-protein kinase PLK1 (Homo sapiens) (UniProt P53350). Put plainly: qHTS for Inhibitors of PLK1-PDB (polo-like kinase 1 - polo-box domain): Primary Screen. The assay is classed as functional.
For assay [11], the target named is 15-hydroxyprostaglandin dehydrogenase [NAD(+)] (Homo sapiens) (UniProt P15428).
For the next assay, the target named is Ataxin-2 (Homo sapiens) (UniProt Q99700). Kind of assay: qHTS for Inhibitors of ATXN expression. The assay is classed as functional.
Assay [12] addresses Guanine nucleotide-binding protein G(s) subunit alpha isoforms short (Homo sapiens) (UniProt P63092). Kind of assay: qHTS for Agonist of gsp, the Etiologic Mutation Responsible for Fibrous Dysplasia/McCune-Albright Syndrome: qHTS. It is filed as functional.
Assay [13] concerns the target Glycoprotein hormones alpha chain (Homo sapiens) (UniProt P01215). Kind of assay: qHTS for Activators of Integrin-Mediated Alleviation for Muscular Dystrophy. It is filed as functional.
For assay [14], the target named is Parathyroid hormone/parathyroid hormone-related peptide receptor (Homo sapiens) (UniProt Q03431). Put plainly: qHTS of PTHR Inhibitors: Primary Screen. The assay is classed as functional.
Assay [15] has as its target GTP-binding nuclear protein Ran/Importin subunit beta-1/Snurportin-1 (Homo sapiens) (UniProt P62826+Q14974+O95149). Put plainly: qHTS Assay for Inhibitors of RanGTP induced Rango (Ran-regulated importin-beta cargo) - Importin beta complex dissociation. [Related pubchem assays (depositor defined):AID540262]. The assay is classed as functional.

Consider `O=[N+]([O-])c1cc([N+](=O)[O-])c(NCC2CCS(=O)(=O)C2)c([N+](=O)[O-])c1` (configuration not stated), for which the Potency was active: 31.6 µM in assay [1]; active: 2 µM in assay [2]; active: 4.47 µM in assay [3]; active: 7.08 µM in [4]; active: 17.8 µM in the assay on HepG2; active: 11.2 µM in assay [5]. The Potency in the assay with Geminin (Homo sapiens) was active: 9.2 µM; in assay [7], active: 5.8 µM; in assay [8], active: 2.91 µM. Further, in assay [6], the Potency entry is “inactive”.
`Cc1nc2ccc3ccccc3c2s1`: the Potency in assay [9] was active: 56.2 µM; in assay [10], active: 29.9 µM; in [11], active: 28.2 µM.
For the compound `Cc1ccc(Nc2c([N+](=O)[O-])cc([N+](=O)[O-])cc2[N+](=O)[O-])cc1`, the Potency result (with HepG2; in [12]; in assay [13]; in [14]) was “inactive” each time. In addition, the Potency in assay [5] is active: 15.8 µM; with Ataxin-2 (Homo sapiens) it was active: 10 µM; in assay [7], active: 5.8 µM; in [8], active: 16.4 µM.
Turning to `CN(C(=O)Cc1ccc(Cl)c(Cl)c1)C1CCCCC1N1CCCC1` (configuration not stated), the Potency result in assay [15] was “inactive”.
What is called GI50 is the concentration giving 50% growth inhibition. In the case of `Cc1ccc2ccc(C)c(C)c2c1.O=[N+]([O-])c1cc([N+](=O)[O-])c(O)c([N+](=O)[O-])c1O`, the GI50 in the assay on NCI-H23 and with RXF 393 was inactive: > 100 µM in each case.
Turning to `COc1ccc2nccc(C=O)c2c1`, the values for the GI50 in the assay on NCI-H23 and in the assay with RXF 393 were inactive: 7.03 µM and inactive: 87.5 µM, respectively.
In the case of `O=[N+]([O-])c1ncn(F)c1[N+](=O)[O-]`, the GI50 in the assay with RXF 393 is inactive: > 100 µM.
